Protein sequences, listed by entry. Tags and fused reporters are not part of them. Residues count along the entry.
UniProt Q695T7, whole entry: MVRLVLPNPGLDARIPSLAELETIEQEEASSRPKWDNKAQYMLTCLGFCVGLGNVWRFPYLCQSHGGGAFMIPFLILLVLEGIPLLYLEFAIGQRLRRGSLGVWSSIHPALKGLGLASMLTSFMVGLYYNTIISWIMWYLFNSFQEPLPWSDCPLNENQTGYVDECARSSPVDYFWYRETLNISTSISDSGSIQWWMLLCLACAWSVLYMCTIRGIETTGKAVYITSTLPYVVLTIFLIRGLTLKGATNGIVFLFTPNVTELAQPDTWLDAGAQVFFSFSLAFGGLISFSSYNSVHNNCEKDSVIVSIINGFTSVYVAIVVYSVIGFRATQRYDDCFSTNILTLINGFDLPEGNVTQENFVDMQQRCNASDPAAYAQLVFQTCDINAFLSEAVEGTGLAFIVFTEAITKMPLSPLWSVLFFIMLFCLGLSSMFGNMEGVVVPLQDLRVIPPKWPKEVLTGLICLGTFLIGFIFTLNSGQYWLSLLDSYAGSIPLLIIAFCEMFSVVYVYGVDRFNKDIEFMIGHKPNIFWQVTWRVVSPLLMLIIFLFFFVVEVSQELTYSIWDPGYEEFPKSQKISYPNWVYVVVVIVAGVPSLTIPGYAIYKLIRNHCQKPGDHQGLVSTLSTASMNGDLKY
UniProt Q9HBJ8, 15-222 partner limits assumed: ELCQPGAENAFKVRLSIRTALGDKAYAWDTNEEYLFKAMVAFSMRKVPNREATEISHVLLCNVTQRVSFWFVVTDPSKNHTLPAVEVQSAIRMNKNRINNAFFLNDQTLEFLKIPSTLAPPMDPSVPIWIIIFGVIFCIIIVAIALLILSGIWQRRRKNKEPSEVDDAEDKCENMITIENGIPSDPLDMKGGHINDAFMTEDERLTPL

According to patent publication US20260184693A1, “INHIBITORS OF SOLUTE CARRIER FAMILY 6A MEMBER 19 (SLC6A19) AND METHODS OF USE THEREOF” (Maze Therapeutics, Inc., priority 2022, published 2026):

Target: human SLC6A19 (Homo sapiens, UniProt Q695T7)
Experiment: Example B2: 13C6,15N-isoleucine uptake, RapidFire mass spectrometry, in CHO cells with doxycycline-inducible expression of human SLC6A19 and TMEM27
Conditions: read-out: SLC6A19_RapidFire Uptake Assay IC50
Description: Assay ready vials of CHO cells with doxycycline inducible expression of human SLC6A19 and TMEM27 were thawed, plated in T175 flasks containing DMEM/F12 media, 10% FBS, 100 Penicillin-Streptomycin, 1× UltraGlutamate, 1 mM Sodium Pyruvate, Sodium Bicarbonate (7.5 mL of 7.5% solution in 500 mL media final), […] Blasticidin, 150 µg/mL Hygromycin B Gold, and 500 µg/mL G418, and incubated (humidified, 37° C. with […]) for 48 hours. Media was then removed, flasks were washed with 20 mL of DPBS, and 5 mL of TryμLE™ Express was added to each flask to initiate cell dissociation. After 5 minutes, 10 mL of cell culture media was added to each flask and mixed. The cell suspension was collected and centrifuged for 5 minutes at 200×g. The supernatant was removed, and the pellet was resuspended in 10 mL of cell culture media. Resuspended cells were counted using a Vi-Cell. 30 μL/well (20,000 cells/well) of cell suspension was added to Poly-D-Lysine 384-well black/clear plates. Plates were incubated (humidified, 37° C. with 5% CO2) for 24 hours. To induce expression of human SLC6A19 and TMEM27, 10 μL of assay culture media containing 4 μg/mL doxycycline was added to each well. Assay plates were then incubated (humidified, 37° C. with 5% CO2) overnight. […] Peak areas were calculated using RapidFire Integrator software.

SMILES: CN(C(=O)NCc1cc2cc(Cl)ccc2[nH]1)[C@@H]1CCCN(C(=O)Cn2cnnn2)C1
- IC50: 5.74 µM
